The target of the experiment is recombinant human secretory phospholipase A2 (Homo sapiens, UniProt P14555). In words: Inhibition Test of Human Secretory Phospholipase A2 (chromogenic assay). As to conditions: sPLA2 50 ng/well, 40° C., 30 minutes, OD 405 nm, 96 well microtiterplate. An excerpt:
Test Example: Inhibition Test of Human Secretory Phospholipase A2
In order to identify and evaluate an inhibitor of recombinant human secretory phospholipase A2, the following chromogenic assay is utilized. The assay herein has been applied for high volume screening wherein 96 well microtiterplate is used. A general explanation for such assay is described in “Analysis of Human Synovial Fluid Phospholipase A2 on Short Chain Phosphatidylcholine-Mixed Micelles: Development of a Spectrophotometric Assay Suitable for a Micortiterplate Reader” (Analytical Biochemistry, 204, pp 190-197, 1992 by Laure. J. Reynolds. Lori L. Hughes and Edward A. Dennis: the disclosure of which is incorporated herein for reference.
pH 7.5 (adjusted with NaOH)
pH 4.5 (adjusted with acetic acid)
1 mg of sPLA2 is dissolved in 1 ml of an enzyme buffer. Thereafter, the solution is maintained at 4° C.
In the assay, 5 μl of the solution is diluted with 1995 μl of the reaction buffer to be used.
198 mg of 5,5′-dithiobis-2-[…] (manufactured by Wako Pure Chemicals) is dissolved in 100 ml of H2O
H 7.5 (adjusted with NaOH)
100 mg of racemic 1,2-bis(heptanoylthio)-1,2-dideoxy-sn-glycero-3-phospholylcholine is dissolved in 1 ml of chloroform. […]
5) Changes in absorbancy for 30 minutes are measured by a plate reader, and inhibition activity was calculated (OD: 405 nm). […]

Amino acid sequences for entries named in this document (tags omitted). Residues count along the entry.
UniProt P14555, 21-144 limits assumed: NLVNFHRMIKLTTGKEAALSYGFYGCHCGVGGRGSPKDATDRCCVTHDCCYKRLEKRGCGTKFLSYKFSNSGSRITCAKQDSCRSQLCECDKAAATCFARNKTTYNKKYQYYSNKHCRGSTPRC

The results in this text go back to patent US6407104B1, “Pyrrolo[1,2-a]pyrazine spla2 inhibitor” (Shionogi & Co., Ltd., priority 1998, dated 2002).

One may read the IC50 as the midpoint of a concentration-inhibition curve.

For the molecule `CCc1c(C(=O)C(N)=O)c2c(OCC(=O)OC)nc(C)cn2c1Cc1ccccc1-c1ccsc1`, the IC50 is 81 nM.
